The results in this text go back to paper PMC6433648 (British Journal of Pharmacology, 2019).

Amino acid sequences for entries named in this document (tags omitted). Residues count along the entry.
UniProt P30542, 2-326 limits assumed: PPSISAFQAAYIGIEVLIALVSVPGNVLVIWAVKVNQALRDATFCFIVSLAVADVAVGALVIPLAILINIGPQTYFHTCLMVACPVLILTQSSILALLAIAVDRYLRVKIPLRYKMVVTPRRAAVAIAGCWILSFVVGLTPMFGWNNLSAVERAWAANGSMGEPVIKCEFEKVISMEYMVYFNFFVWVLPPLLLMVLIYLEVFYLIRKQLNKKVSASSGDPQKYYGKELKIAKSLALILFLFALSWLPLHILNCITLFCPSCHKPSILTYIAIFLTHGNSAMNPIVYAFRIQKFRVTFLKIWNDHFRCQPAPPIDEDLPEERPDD

The test has as its target human Nluc‐A1AR (Homo sapiens, UniProt P30542). The test is described as follows: NanoBRET competition binding: inhibition of specific binding of CA200645. Further details: expressed in transfected cells. The text has this:
The IC50 values from competition‐binding curves were used to calculate the K i of the unlabelled ligands using the Cheng–Prusoff equation: Ki=IC50/1+L/KD, where [L] is the concentration of fluorescent ligand in nM, and K D is the dissociation constant of the fluorescent ligand in nM. The K D values used were obtained from the saturation‐binding experiments.

Take `O=C(Cc1ccccc1)Nc1nc2ccc(Cl)cc2c2nc(-c3ccco3)nn12` [MRS1220, N‐[9‐chloro‐2‐(furan‐2‐yl)‐[1,2,4]triazolo[1,5‐c]quinazolin‐5‐yl]‐2‐phenylacetamide]: the half-maximal inhibitory concentration (IC50) (Nluc‐human A1AR, 25 nM CA200645, HEK293T cells) is 380 nM. In addition, the Ki (read-out: pK i ± SEM (converted)) is 219 nM.
